This is an account of results in PubChem BioAssay AID624415 (National Center for Advancing Translational Sciences (NCATS), 2012).

Amino acid sequences for entries named in this document (tags omitted).
UniProt Q9GZU1, whole entry: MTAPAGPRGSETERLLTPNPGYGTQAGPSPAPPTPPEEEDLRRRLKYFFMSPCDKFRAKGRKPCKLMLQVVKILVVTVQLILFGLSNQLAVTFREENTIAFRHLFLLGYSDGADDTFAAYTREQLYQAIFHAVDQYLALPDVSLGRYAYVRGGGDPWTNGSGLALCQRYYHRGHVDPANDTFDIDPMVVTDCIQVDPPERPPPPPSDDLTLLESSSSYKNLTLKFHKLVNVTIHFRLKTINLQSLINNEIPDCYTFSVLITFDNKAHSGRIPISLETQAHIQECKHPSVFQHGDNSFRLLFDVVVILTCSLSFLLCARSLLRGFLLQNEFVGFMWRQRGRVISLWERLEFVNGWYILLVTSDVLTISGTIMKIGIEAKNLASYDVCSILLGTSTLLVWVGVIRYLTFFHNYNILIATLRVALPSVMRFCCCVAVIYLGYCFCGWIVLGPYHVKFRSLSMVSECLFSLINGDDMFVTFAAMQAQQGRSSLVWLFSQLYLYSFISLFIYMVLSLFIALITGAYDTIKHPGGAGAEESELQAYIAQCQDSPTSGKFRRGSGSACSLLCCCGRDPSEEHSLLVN

The list shows a part of the results, in another mix than the full data. Calls of active or inactive are those of the source. Rule as the data show it: active = activity change below about -50%; inconclusive = between about -30% and that limit; inactive = weaker than that.
% is scaled to controls: 0 for no effect and ±100 for the full control effect.

This experiment deals with Mucolipin-1 (Homo sapiens) (UniProt Q9GZU1). The experiment can be described thus: qHTS for Inhibitors of the Human Mucolipin Transient Receptor Potential 1 (TRPML1). Particulars: TRPML1-inducible cells, Ca2+ dye fluorescence, FDSS; stronger effect = lower value; inhibition of EC80 agonist-evoked calcium signal. An excerpt: Mutations of human Mucolipin transient receptor potential 1 (TRPML1) cause type IV mucolipidosis (ML4), a devastating neurodegenerative disease in young children. […] Currently, there is no treatment for ML4. […] Under physiological conditions, TRPMLs regulate membrane trafficking by transducing information about PI(3,5)P2 levels into changes in juxtaorganellar Ca2+, thereby triggering membrane fusion/fission events in the late endocytic pathways (endolysosomal trafficking). In addition, TRPML1 mediates release of Fe2+ from late endosomes and lysosomes, which is essential for cellular iron metabolism. Thus, impaired ion (Ca2+ and Fe2+) homeostasis underlies lysosomal dysfunction and ML4 phenotypes. In ML4 cells, the problem is twofold. First, defective Ca2+-dependent membrane trafficking due to TRPML1-deficiency causes accumulation of lipids and other bio-materials in the lysosome. […]
TRPML1-DL cells are dissociated from flasks, counted and, brought up to a density of 500,000 cells per mL of media containing a 1X Tet inducer. […] The assay plate is read on the FDSS using the following protocol: 10 second baseline read, 23 nL of compounds and controls are added using 1536 pintool, agonist read for 110 seconds, 1 uL EC80 addition (4 uM final 54-4 diluted in media), antagonist read for 110 seconds.
(Quantitative high-throughput screening tests each substance at several concentrations.)
Take `CCC(=O)N(c1ccccc1)C1(COC)CCN(CCc2cccs2)CC1`: the activity change, negative = inhibition is inactive: 20.6%. As for `CCC(=O)N(c1ccccc1)C1(COC)CCN(CCn2nnn(CC)c2=O)CC1`, the figure is inactive: -5.71%.
